pEC50: −log10 of the molar value. Entries after “also recorded” stand apart in the source; their conditions may differ.
Experiments:
[1] = Phase 1 MAD study of ALT-801: ketone body production; assay type: in vivo, human
Procedure: (§1) Blood samples are collected for evaluation of ketone bodies after the subject has fasted overnight for at least 10 hours, 1 day prior to the first and second doses, and 6 days after the last dose. Blood samples for evaluation of FGF-21 and adiponectin are collected after the subject has fasted overnight for at least 10. Following a minimum 10 hour fast, blood is collected for assessment of lipids, including cholesterol (total, HDL, LDL), Apo A and B, lipoprotein(a), TG, and tripalmitin, prior to the first dose and 6 days after the last dose of study medication, as indicated in Table 4. Blood is collected for the assessment of inflammatory markers, including TNF-α, hs-CRP, leptin, MCP-1, and IL-6 prior to the first dose and 6 days after the last dose of study medication, as indicated in Table 4. Glucose homeostasis is assessed by 24-hour CGM using a Dexcom G6 CGM during the periods indicated in Part 1 and Part 2.

Amino acid sequences for entries named in this document (tags omitted). Residues count along the entry.
UniProt P47871, 26-477: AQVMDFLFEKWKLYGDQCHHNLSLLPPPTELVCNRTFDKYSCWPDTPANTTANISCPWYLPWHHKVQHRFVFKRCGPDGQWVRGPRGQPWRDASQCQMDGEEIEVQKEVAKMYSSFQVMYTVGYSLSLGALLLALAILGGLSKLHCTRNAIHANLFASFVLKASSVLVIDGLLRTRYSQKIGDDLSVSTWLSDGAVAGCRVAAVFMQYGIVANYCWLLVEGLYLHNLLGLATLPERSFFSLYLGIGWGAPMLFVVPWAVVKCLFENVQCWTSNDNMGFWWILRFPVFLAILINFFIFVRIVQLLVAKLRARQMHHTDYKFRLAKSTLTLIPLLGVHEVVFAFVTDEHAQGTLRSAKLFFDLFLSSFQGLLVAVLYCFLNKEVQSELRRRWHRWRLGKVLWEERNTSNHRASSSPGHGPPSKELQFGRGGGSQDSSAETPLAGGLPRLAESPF

[2] = Phase 1 MAD study of ALT-801: glucose homeostasis, fasting plasma glucose and HbA1c; assay type: in vivo, human; settings: for Fasting Plasma Glucose, change from baseline / Fasting Plasma Glucose, percent change from baseline: mean of weekly measurements, Weeks 1-12, compared to Baseline
Procedure: as §1

[3] = Phase 1 MAD study of ALT-801: BMI (body mass index); assay type: in vivo, human; settings: 12 weeks (Day 85), 1.2, 1.8 and 2.4 mg
Procedure: Height is measured in centimeters using a wall-mounted stadiometer or one mounted on a balance beam scale, whichever is available. Subjects should be wearing socks or be barefoot. With the exception of screening visits, weight is measured in kilograms using a calibrated scale at approximately the same time of day at each nominal timepoint. Measurements should be taken with subjects wearing a gown (or other standard clothing provided by the clinical research unit), undergarments, and socks (no shoes), while fasting and after the subject has been asked to void (ie, empty bladder). Waist circumference should be taken with the subject wearing a gown. […] The measurement need not be at the level of the umbilicus. The measuring tape is kept horizontal. Height, weight, and waist circumference is measured, and BMI calculated and recorded according to the schedules in Part 1 and Part 2. Measurement of height is required at screening only. Waist circumference is measured for subjects in Part 2 only.

[4] = Example 7 planned Phase 1 12-week study of ALT-801 in subjects with NAFLD; assay type: in vivo, human; settings: SC once weekly up to 12 doses, NASH
Text: Subjects will be stratified for the presence of absence of diabetes at baseline. […] Subjects will be stratified for the presence of absence of diabetes at baseline.
For this study, suitable subjects are those with NAFLD without significant fibrosis, defined as FibroScan® controlled attenuation parameter (CAP)≥280 dB/m and liver stiffness measurement (LSM)<8.5 kPa, and magnetic resonance imaging derived proton density fat fraction (MRI-PDFF)≥10%. […] There will be 18 subjects in each treatment arm.

[5] = Phase 1 MAD study of ALT-801: study disposition; assay type: in vivo, human; settings: for Early withdrawal due to adverse event, % of subjects: 12-week MAD
Procedure: The Safety Population includes all randomized subjects who receive at least 1 dose of study medication. Subjects is analyzed according to the treatment that they receive. […] The QT Population includes all subjects in the PK Population who have at least 1 time-matched ECG at baseline and corresponding time-matched PK-ECG postdose. The PD Population includes all randomized subjects who receive at least 1 dose of study medication and who have results from baseline and at least 1 post-baseline PD assessment.

[6] = target: T1, glucagon (human, cloned into CHO cells) receptor (Homo sapiens, UniProt P47871); assay: cAMP stimulation cellular assay (DiscoveRx LeadHunter), glucagon receptor; assay type: cell-based
T1 construct: host or cells: CHO cells

[7] = Population PK model / pharmacometric modelling, predicted human PK and efficacious dose
Text: The pre-clinical safety findings support a 3-fold dose escalation increment to SAD Cohort 2. Subsequent escalations will not exceed 2-fold in either part of the study. Dose titration schemes may be explored if needed to improve tolerability. Adding to the confidence around these predictions, the dose-exposure relationship in humans is predicted to be linear based on a population PK model of several preclinical species (mice, rats, mini-pigs, and monkeys). The model is updated with human data as the study is ongoing. […] Based on once-weekly (QW) dosing, the estimated accumulation with repeated dosing at steady state is not greater than 2-fold. To ensure that multiple dose exposures will remain within single dose exposures, the starting dose in Part 2 is planned to be one-half the dose for Part 1 Cohort 3. However, subsequent Part 2 cohorts may be adjusted based on safety and PK data. The decision to escalate to each successive dose level is based on assessment of safety and tolerability through Day 8 (7 days following the single dose) in Part 1 and Day 15 (7 days following the second dose) in Part 2. […] Further, the expectation is the Cmax and AUCtau of the final week of dosing will not exceed the Cmax or AUCinf of a dose in a previously completed and safety-assessed SAD cohort.

[8] = Phase 1 MAD study of ALT-801: appetite suppression / early satiety; assay type: in vivo, human; settings: 12 weeks, 1.2, 1.8 and 2.4 mg
Procedure: Food intake and appetite are assessed using an ad libitum meal test and the VAS questionnaire. VAS questionnaires are standard techniques in appetite research that record feelings of hunger, satiety, fullness, and desire to eat specific tastes, such as sweet, salty, savory, and fatty [Flint 2000]. Subjects will complete a VAS questionnaire before and after an ad libitum meal on days specified in the schedule of assessments. The size of the ad libitum meal will exceed expected intake of healthy overweight and obese volunteers. During the test meal, subjects are isolated and environmental cues minimized (ie, no TV, cell phones, computers, etc.). Subjects are instructed that they have 30 minutes to consume as much or as little as they want, and they should eat until comfortably full. Pre and post meal weights are recorded to capture food intake, and caloric consumption is determined.

## CC[C@H](C)[C@H](NC(=O)[C@H](Cc1ccccc1)NC(=O)[C@H](CCC(=O)O)NC(=O)[C@@H]1CCCCNC(=O)CC[C@H](NC(=O)[C@H](CC(=O)O)NC(=O)[C@H](CC(C)C)NC(=O)[C@H](Cc2ccc(O)cc2)NC(=O)[C@H](CCCCN)NC(=O)[C@H](CO)NC(=O)[C@H](Cc2ccc(O)cc2)NC(=O)[C@H](CC(=O)O)NC(=O)[C@H](CO)NC(=O)[C@@H](NC(=O)[C@H](Cc2ccccc2)NC(=O)[C@@H](NC(=O)CNC(=O)[C@H](CCC(N)=O)NC(=O)C(C)(C)NC(=O)[C@@H](N)Cc2c[nH]cn2)[C@@H](C)O)[C@@H](C)O)C(=O)N[C@@H](CCCCNC(=O)[C@H]2O[C@@H](OCCCCCCCCCCCCCCCCCC(=O)O)[C@H](O)[C@@H](O)[C@@H]2O)C(=O)N[C@@H](C)C(=O)N[C@@H](C)C(=O)N1)C(=O)N[C@@H](CCC(N)=O)C(=O)N[C@@H](Cc1c[nH]c2ccccc12)C(=O)N[C@@H](CC(C)C)C(=O)N[C@@H](CC(C)C)C(=O)N[C@@H](CCC(N)=O)C(=O)N[C@H](C(N)=O)[C@@H](C)O [ALT-801, pemvidutide]
[1]; Table 17, Baseline, 1.2 mg group
  Ketone bodies, mean (SD): 2.2 (0.9) mmol/L
[1]; Table 17, Baseline, 1.8 mg group
  Ketone bodies, mean (SD): 1.3 (0.7) mmol/L
[1]; Table 17, Baseline, 2.4 mg group
  Ketone bodies, mean (SD): 1.8 (0.6) mmol/L
[1]; Table 17, Week 12, 1.2 mg SC once weekly
  Ketone bodies, mean (SD): 6.1 (10.2) mmol/L
[1]; Table 17, Week 12, 1.8 mg SC once weekly
  Ketone bodies, mean (SD): 9.3 (11.1) mmol/L
[1]; Table 17, Week 12, 2.4 mg SC once weekly
  Ketone bodies, mean (SD): 7.5 (3.8) mmol/L
[1]; Table 23, Baseline, 1.2 mg group
  Ketone bodies, mean (SD): 0.12 (0.05) mmol/L
[1]; Table 23, Baseline, 1.8 mg group
  Ketone bodies, mean (SD): 0.07 (0.04) mmol/L
[1]; Table 23, Baseline, 2.4 mg group
  Ketone bodies, mean (SD): 0.10 (0.04) mmol/L
[1]; Table 23, Week 12, 1.2 mg SC once weekly
  Ketone bodies, mean (SD): 0.34 (0.57) mmol/L
[1]; Table 23, Week 12, 1.8 mg SC once weekly
  Ketone bodies, mean (SD): 0.52 (0.62) mmol/L
[1]; Table 23, Week 12, 2.4 mg SC once weekly
  Ketone bodies, mean (SD): 0.42 (0.21) mmol/L
[1]; in vivo
  ketone body production, in words: improved
[2]; 1.2 mg SC once weekly
  Fasting Plasma Glucose, change from baseline: +3.0 mg/dL
  Fasting Plasma Glucose, percent change from baseline: +3.5%
[2]; 1.8 mg SC once weekly
  Fasting Plasma Glucose, change from baseline: -0.4 mg/dL
  Fasting Plasma Glucose, percent change from baseline: −0.5%
[2]; 2.4 mg SC once weekly
  Fasting Plasma Glucose, change from baseline: -0.8 mg/dL
  Fasting Plasma Glucose, percent change from baseline: −0.9%
[2]; Baseline, 1.2 mg group
  HOMA-IR (insulin resistance), Mean (SD): 2.5 (1.2)
  HbA1c, Mean (SD): 5.3 (0.1) %
[2]; Baseline, 1.8 mg group
  HOMA-IR (insulin resistance), Mean (SD): 2.4 (2.5)
  HbA1c, Mean (SD): 5.5 (0.2) %
[2]; Baseline, 2.4 mg group
  HOMA-IR (insulin resistance), Mean (SD): 3.1 (1.8)
  HbA1c, Mean (SD): 5.3 (0.2) %
[2]; Week 12, 1.2 mg SC once weekly
  HOMA-IR (insulin resistance), Mean (SD): 2.0 (1.4)
  HbA1c, Mean (SD): 5.4 (0.2) %
[2]; Week 12, 1.8 mg SC once weekly
  HOMA-IR (insulin resistance), Mean (SD): 2.2 (2.5)
  HbA1c, Mean (SD): 5.4 (0.3) %
[2]; Week 12, 2.4 mg SC once weekly
  HOMA-IR (insulin resistance), Mean (SD): 2.4 (1.2)
  HbA1c, Mean (SD): 5.3 (0.3) %
[3]
  BMI, in words: All treatment groups reduced BMI
[4]
  expected outcome of trial: safe and tolerable
[5]; 1.2 mg SC once weekly
  Early withdrawal due to adverse event, % of subjects: (0%)
[5]; 1.8 mg SC once weekly
  Early withdrawal due to adverse event, % of subjects: (0%)
[5]; 2.4 mg SC once weekly
  Early withdrawal due to adverse event, % of subjects: (0%)
[5]; 12 weeks
  withdrawal / study discontinuations due to adverse events: No subject withdrew; also recorded: no study discontinuations due to adverse events
[6]
  % activity, GCGR: 100%
[6]; CHO, read-out: intrinsic activity, GCGR
  Emax: 115%
[6]; equipotent (1:1) activity at both receptors, GCGR
  pEC50: ~10.40
[7]; human, plasma, subcutaneous
  predicted t1/2 in humans: ~100 h
[7]; once-weekly (QW) dosing
  estimated accumulation with repeated dosing at steady state: ≤ 2 fold
[8]
  appetite, in words: decreased appetite and a dose response

From patent US12171806B2, “Therapeutic regimens and methods for lowering blood glucose and/or body weight using GLP-1R and GCGR balanced agonists” (priority 2021, dated 2024)
